The text below walks through data of patent US11807873B2, “Conversion of S-lignin compounds to useful intermediates” (Alliance for Sustainable Energy, LLC, priority 2020, dated 2023).

By UniProt entry, the sequences of proteins in these tests, tags left out.
UniProt Q88GI6, entry or part of it: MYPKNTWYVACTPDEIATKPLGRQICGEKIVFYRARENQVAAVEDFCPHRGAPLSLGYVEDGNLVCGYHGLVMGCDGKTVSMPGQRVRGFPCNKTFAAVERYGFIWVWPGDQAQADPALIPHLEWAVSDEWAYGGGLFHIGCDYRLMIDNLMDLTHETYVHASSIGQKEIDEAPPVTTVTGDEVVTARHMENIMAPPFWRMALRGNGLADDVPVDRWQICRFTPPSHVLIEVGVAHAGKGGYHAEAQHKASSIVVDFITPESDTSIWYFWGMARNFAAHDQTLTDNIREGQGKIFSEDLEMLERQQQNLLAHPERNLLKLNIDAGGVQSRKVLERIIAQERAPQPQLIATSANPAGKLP

The test has as its target VanAB (vanillate O-demethylase) (Pseudomonas putida, UniProt Q88GI6). Briefly: VanAB steady-state kinetics, O2 consumption (oxygraph). As to conditions: 2 μM Ht-VanB, 400 μM NADH, air-saturated HEPES (I = 0.1M), pH 7.5, 25° C; VanA 0.4 μM for vanillate, 1 μM for syringate and 3MGA.

For `COc1cc(C(=O)O)ccc1O` [VA, vanillate], the “kcat^app” value came out at 0.77 ± 0.02 s⁻¹.
